## Binding of CDR-mutated scFvs to a peptide of the spike HR2 region

From the AlphaSeq antibody data of Li et al. 2023 (doi:10.1038/s41467-023-39022-2), copy in the FLAb collection.

Binding partner: SARS-CoV-2 spike HR2 peptide, sequence PDVDLGDISGINAS.

Each scFv is VH, the linker GGGGSGGGGSGGGGS, VL, as in the parent Ab-14, and differs from it in the CDRs of the heavy chain only.
VH: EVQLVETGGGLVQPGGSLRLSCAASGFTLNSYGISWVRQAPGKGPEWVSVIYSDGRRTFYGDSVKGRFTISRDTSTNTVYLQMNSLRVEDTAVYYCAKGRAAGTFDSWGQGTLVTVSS
VL: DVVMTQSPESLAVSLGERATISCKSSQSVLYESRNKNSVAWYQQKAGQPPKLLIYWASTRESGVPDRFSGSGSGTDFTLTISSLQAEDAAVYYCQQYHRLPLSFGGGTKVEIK

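Phage display of a naive human antibody library on the peptide gave the parent. The variants were designed computationally from a first round of random CDR variants and then made and measured. Their group label is 14H_En_Gibbs (En: ensemble of fine-tuned language models; Gibbs: Gibbs sampling). AlphaSeq pools MATa yeast showing the antibodies with MATalpha yeast showing the peptide. Pairs that bind mate more often; barcode pairs of the diploids are counted by sequencing. A regression on co-assayed BCL2-family reference pairs converts the normalised counts of each replicate to an apparent Kd. The assay was run in six technical replicates.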

Each variant is given by its three heavy chain CDRs, as the data file delimits them; those of the parent are GFTLNSYGIS, VIYSDGRRTFYGDSVK, GRAAGTFDS.
Scale: log10 of Kd in nM, estimated from mating counts; low values are strong binders.
Averages over replicates are reported, and they cover detected replicates only.
Where no diploid with the target was found in that replicate, the entry reads "ND": below detection, most likely a poor binder, though not proof of it.
Values of this round are not directly comparable with the first-round values of the same sequences.

| CDR-H1 | CDR-H2 | CDR-H3 | replicates, log10 nM | mean, log10 nM | empty controls |
|---|---|---|---|---|---|
| GIDLEEYGIS | VIYADGMRKAYINSVK | GEDSVTTFV | ND ND ND ND ND ND | ND | 0 of 18 |
| GFDLNEYGIS | VIYADGTRTAYANTVK | GKYVGVFVD | ND ND ND ND ND ND | ND | 0 of 18 |
| GKGLDEYGIS | VIYADGVRKAYQNSVK | GQVTFFIRV | ND ND ND ND ND ND | ND | 0 of 18 |
| GDSLEEYGIS | VIYADGSRTSYQESVK | GLYIGMLDV | ND ND ND ND ND ND | ND | 0 of 18 |
| GFDIEKYGIS | VIYADGQRVSYDSSVK | GENAGNFMD | ND ND ND ND ND ND | ND | 0 of 18 |
| GMDLEEYGIS | VIYADGVRARYVNDVK | GQVDAILVV | ND ND ND ND ND ND | ND | 0 of 18 |
| GFDLNEYGIS | VIYADGLRQAYEDSVK | GRNIIGFLF | ND ND 1.22 ND ND 1.45 | 1.34 | 0 of 18 |
| GFSLDEYGIS | VIYADGVRKHYADSVK | GNIDGYYFA | ND ND ND ND ND ND | ND | 1 of 18 (1.75) |
| GNDLEEYGIS | VIYADGMRTAAVDSVK | GDNSGTVVV | ND ND ND ND ND ND | ND | 0 of 18 |
| GFEIDEYGIS | VIYADGIRTSYNDNVK | GQLGNAFDL | ND ND 2.31 4.45 ND ND | 3.38 | 0 of 18 |
| GFDIDEYGIS | VIYADGRRTAYKPKVK | GNNTGLVFI | ND ND ND ND ND ND | ND | 0 of 18 |
| GFPIDEYGIS | VIYADGRRTVYSDNVK | GNYGASIII | ND ND ND ND ND ND | ND | 0 of 18 |
| GFNLDEYGIS | VIYADGVRTQYAQSVK | GMNNGYIAG | ND ND ND ND ND ND | ND | 0 of 18 |
| GFQLDEYGIS | VIYADGQRTAYSKNVK | GTIDFKRID | ND ND ND ND ND ND | ND | 0 of 18 |
| GSSLDEYGIS | VIYADGQRVQYADTVK | GIQAGNVDV | ND ND ND ND ND ND | ND | 0 of 18 |
| GFGLDEFGIS | VIYADGLRSSYADDVK | GEDTGGFIV | ND ND ND ND ND ND | ND | 0 of 18 |
| GDDLQEYGIS | VIYADGLRTAYGNSVK | GGSNGLMTV | ND ND ND ND ND ND | ND | 0 of 18 |
| GFDVDEYGIS | VIYADGSRVAILESVK | GKIAGTFDE | ND ND ND ND ND ND | ND | 0 of 18 |
| GFDLNEYGIS | VIYADGRRTAYVQSVK | GKNNMVLSV | ND ND ND ND ND ND | ND | 0 of 18 |
| GFDIEEYGIS | VIYADGKRAQYADAVK | GENMDMMTY | 0.36 0.55 0.42 -0.36 0.31 1.29 | 0.43 | 0 of 18 |
| GFDLNEYGIS | VIYADGSRVAYAQNVK | GKNDAISSV | ND ND ND ND ND ND | ND | 0 of 18 |
| GESLDEYGIS | VIYADGQRNAFTSKVK | GHVAGVFNL | ND ND ND ND ND ND | ND | 0 of 18 |
| GFDLEEYGIS | VIYADGLRVFYADSVK | GGFDGYKFR | ND ND ND ND ND ND | ND | 1 of 18 (1.26) |
| GFDLQEYGIS | VIYADGLRSMVTNSVK | GNSGVMVLV | ND ND ND ND ND ND | ND | 0 of 18 |
| GFNLEEYGIS | VIYADGSRSSYIEDVK | GQWNADFIV | ND ND ND ND ND ND | ND | 0 of 18 |
| GYDLVEYGIS | VIYADGQRTMYADTVK | GHHGGIFFM | ND ND ND ND ND ND | ND | 0 of 18 |
| GFQIDEYGIS | VIYADGQRSAYTENVK | GQHGGMTVA | ND ND ND ND ND ND | ND | 2 of 18 (1.50) |
| GFTLGEYGIS | VIYADGERTMYSNAVK | GNMAGTFDF | 0.08 0.50 0.10 -0.02 0.41 0.47 | 0.25 | 0 of 18 |
| GQDIEEYGIS | VIYADGMRTVYSDSVK | SGRTVNIDV | ND ND ND ND ND ND | ND | 0 of 18 |
| GEGLDEYGVS | VIYADGRKQSYSDSVK | GAIAGNFDA | ND ND ND 2.92 ND ND | 2.92 | 1 of 18 (2.49) |
| GRDLDEYGIS | VIYADGVRQAYQDSVK | GNWSGTMMY | ND ND ND ND ND ND | ND | 0 of 18 |
| GFDLNEYGIS | VIYADGQRTAAANTVK | GGAVGGQLD | 0.84 2.26 0.26 1.32 1.23 1.35 | 1.21 | 0 of 18 |
| GFDLNEYGIS | VIYADGKRTFYADHVK | GVNAGVFDT | ND ND ND 0.72 ND ND | 0.72 | 0 of 18 |
| FNIGEDYGIS | VIYADGLRTAYENSVK | GEVAGTFDS | 1.18 0.91 1.47 1.31 1.51 1.67 | 1.34 | 1 of 18 (2.52) |
| GFNLDEYGIS | VIYADGYRRAYAQSVK | GYNMSLGVT | ND ND ND ND ND ND | ND | 0 of 18 |
| FQLLDDYGIS | VIYADGKRNAYVADVK | GNVAGTFDV | 1.28 1.05 0.62 0.71 1.39 1.17 | 1.04 | 1 of 18 (2.79) |
| GMDLNEYGIS | VIYADGRRTAYINQVK | GKQSMIVSS | ND ND ND ND ND ND | ND | 0 of 18 |
| GFGLDEFGIS | VIYADGQRTAYLNSFK | GENSNAVDT | ND ND ND ND ND ND | ND | 0 of 18 |
| GENLDEYGIS | VIYADGVREAYANNVK | GEQGSFFIT | ND ND ND ND ND ND | ND | 0 of 18 |
| GFSLDEYGIS | VIYADGVRQAYQDSVK | GQWHGTMMY | ND ND ND ND ND ND | ND | 0 of 18 |
| GFGLDEYGIS | VIYADGMRANYATNVK | GYQAGVIST | ND ND ND ND 2.26 ND | 2.26 | 0 of 18 |
| GDVLDEYGIS | VIYADGRRTAYTQDVK | GKKAGSLSV | ND ND ND ND ND ND | ND | 2 of 18 (3.18) |
| GFYLNEYGIS | VIYADGIRSVYANKVK | GNGAGLLDY | ND 0.80 0.82 ND 0.85 1.00 | 0.87 | 0 of 18 |
| GFDLAEYGIS | VIYADGQRKSYANSFK | GRLSGTNIM | ND ND ND 1.45 ND ND | 1.45 | 0 of 18 |
| GENIEEYGIS | VIYADGRRTAYAEDVK | GQSGGTIDT | -0.73 -0.36 0.25 -0.41 -0.13 -0.23 | -0.27 | 0 of 18 |
| GFDLEEYGIS | VIYADGLRQYAIDNVK | GEISGKGGT | ND ND ND ND ND ND | ND | 0 of 18 |
| GMDLDEYGIS | VIYADGSRVFYVQDVK | GTVDVVGDV | ND ND ND ND ND ND | ND | 0 of 18 |
| GENLDEYGIS | VIYADGVREAYANNVK | GEQGGYFIT | ND ND ND ND ND ND | ND | 0 of 18 |
| GEDLNEYGIS | VIYADGQRTAYDESVK | GKFAGSFFH | ND ND ND ND ND ND | ND | 0 of 18 |
| GFDLNEYGIS | VIYADGRRQAVVENVK | GKINVVDSV | ND ND ND ND ND ND | ND | 0 of 18 |
| GFDLDEYGVS | VIYADGHRNQYTEDVK | GTNSGAVDM | ND ND ND ND ND ND | ND | 1 of 18 (2.75) |

Picked from the list: the 6 lowest averages where every replicate gave a value.

| CDR-H1 | CDR-H2 | CDR-H3 | replicates, log10 nM | mean, log10 nM | empty controls |
|---|---|---|---|---|---|
| GENIEEYGIS | VIYADGRRTAYAEDVK | GQSGGTIDT | -0.73 -0.36 0.25 -0.41 -0.13 -0.23 | -0.27 | 0 of 18 |
| GFTLGEYGIS | VIYADGERTMYSNAVK | GNMAGTFDF | 0.08 0.50 0.10 -0.02 0.41 0.47 | 0.25 | 0 of 18 |
| GFDIEEYGIS | VIYADGKRAQYADAVK | GENMDMMTY | 0.36 0.55 0.42 -0.36 0.31 1.29 | 0.43 | 0 of 18 |
| FQLLDDYGIS | VIYADGKRNAYVADVK | GNVAGTFDV | 1.28 1.05 0.62 0.71 1.39 1.17 | 1.04 | 1 of 18 (2.79) |
| GFDLNEYGIS | VIYADGQRTAAANTVK | GGAVGGQLD | 0.84 2.26 0.26 1.32 1.23 1.35 | 1.21 | 0 of 18 |
| FNIGEDYGIS | VIYADGLRTAYENSVK | GEVAGTFDS | 1.18 0.91 1.47 1.31 1.51 1.67 | 1.34 | 1 of 18 (2.52) |

As a blank, each scFv also met three strains without target: over all heavy chain designs, 1% of these pairings were detected, typically at 2.08 and seldom below 0.84. Also given: how often the same scFv was detected with the empty control strains, with their mean in brackets.
The authors' rule: three or more of the six replicates give a measured affinity, fewer mean a poor binder.